Measured values from PMC2132721.

Sequences of proteins named here, by UniProt entry; tags and fusion partners are left off.
UniProt P05556, whole entry, looked up: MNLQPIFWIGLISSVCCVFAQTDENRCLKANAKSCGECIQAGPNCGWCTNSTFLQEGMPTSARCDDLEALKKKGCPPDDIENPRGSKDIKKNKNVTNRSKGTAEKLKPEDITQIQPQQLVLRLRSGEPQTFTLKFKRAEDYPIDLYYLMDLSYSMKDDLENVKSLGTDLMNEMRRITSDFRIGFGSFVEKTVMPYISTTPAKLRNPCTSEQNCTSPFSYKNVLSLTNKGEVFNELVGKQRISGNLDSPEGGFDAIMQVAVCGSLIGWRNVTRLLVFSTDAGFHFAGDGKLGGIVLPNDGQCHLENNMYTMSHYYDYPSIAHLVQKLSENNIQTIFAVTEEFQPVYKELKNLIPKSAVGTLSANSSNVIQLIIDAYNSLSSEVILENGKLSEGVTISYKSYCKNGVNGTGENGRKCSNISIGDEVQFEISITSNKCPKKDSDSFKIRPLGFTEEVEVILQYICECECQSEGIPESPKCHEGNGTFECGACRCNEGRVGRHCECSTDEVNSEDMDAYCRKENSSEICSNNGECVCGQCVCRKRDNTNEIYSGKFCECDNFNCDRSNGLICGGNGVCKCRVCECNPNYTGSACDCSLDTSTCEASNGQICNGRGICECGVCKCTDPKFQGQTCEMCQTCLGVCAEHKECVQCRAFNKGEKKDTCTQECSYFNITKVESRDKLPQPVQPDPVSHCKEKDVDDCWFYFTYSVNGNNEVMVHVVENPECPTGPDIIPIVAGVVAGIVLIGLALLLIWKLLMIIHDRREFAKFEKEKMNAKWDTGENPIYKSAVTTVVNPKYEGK

Target: α5β1 integrin of A1-F human foreskin fibroblasts (human (endogenous in A1-F foreskin fibroblasts)) (UniProt P05556)
Assay: pull-down

“70-kD amino-terminal fragment of human plasma fibronectin (domain or fragment)” was tested, and the percent decrease of α5β1 binding to the 120-kD column was 70%.
